Measured values reported in patent publication US20250062039A1, “ESTIMATION OF PHARMACOKINETIC (PK) PARAMETERS OF DRUG CANDIDATES USING UNIVERSAL PK PARAMETERS BOUNDS” (Tata Consultancy Services Limited, priority 2023, published 2025).
Only a part of the results on these compounds is given; other tests are left out.

Experiment: Published pharmacokinetics of alfentanil, IV bolus, 7 subjects (Bower & Hull 1982)
Conditions: IV Bolus 161.74 μg; maximum over 7 subjects (Rule 1)

CCC(=O)N(c1ccccc1)C1(COC)CCN(CCn2nnn(CC)c2=O)CC1
CL, Selected Parameter Value: 23.38 L/h
K10, Selected Parameter Value: 2.11 h⁻¹
K12, Selected Parameter Value: 5.39 h⁻¹
K21, Selected Parameter Value: 3.68 h⁻¹
T1/2beta, Selected Parameter Value: 2.34 h
V1, Selected Parameter Value: 15.17 L
V2, Selected Parameter Value: 24.18 L
Vss, Selected Parameter Value: 38.69 L
